Literature values, collected in publication PMC11238383, “A review on the cultivation, bioactive compounds, health-promoting factors and clinical trials of medicinal mushrooms Taiwanofungus camphoratus, Inonotus obliquus and Tropicoporus linteus” (Fungal Biology and Biotechnology, 2024).

System: Gastric cancer cachexia patients
Conditions: ref Liu et al. [233]

In the case of `C=C1CCC[C@]2(C)C=C3OC(=O)C(C)=C3C[C@@H]12` [Atractylenolide I], the “appetite, KPS, PIF positive rates versus FOE” value is listed as “Significantly more effective than fish-oil-enriched nutritional supplementation (FOE) at improving appetite, Karnofsky performance status (KPS) and decreasing proteolysis-inducing factor (PIF) positive rates”.
